Biological target: T1, A3ARs (U87MG) (Homo sapiens, UniProt P0DMS8)
T1 construct: gene ADORA3; native receptor in membranes of U87MG glioblastoma cells
Assay: radioligand saturation binding, membranes
Settings: no PEMF, […] °C, […] min, labelled compound
Experimental: radioligand saturation binding, membranes on A3ARs (U87MG)

Chains of the proteins cited; added tags and fusions are not shown.
UniProt P0DMS8, whole entry: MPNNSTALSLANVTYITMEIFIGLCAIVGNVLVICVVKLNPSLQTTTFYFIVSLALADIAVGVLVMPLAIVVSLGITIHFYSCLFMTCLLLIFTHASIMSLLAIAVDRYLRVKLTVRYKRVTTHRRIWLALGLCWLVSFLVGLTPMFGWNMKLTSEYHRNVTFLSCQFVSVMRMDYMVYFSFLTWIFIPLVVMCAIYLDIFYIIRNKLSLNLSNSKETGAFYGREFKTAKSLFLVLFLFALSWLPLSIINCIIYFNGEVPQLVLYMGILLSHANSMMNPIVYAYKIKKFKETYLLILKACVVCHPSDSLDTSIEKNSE

Kd: 2.14 ± 0.22 nM
Structure (SMILES): CNC(=O)[C@H]1O[C@@H](n2cnc3c(NCc4ccc(N)c(I)c4)ncnc32)[C@H](O)[C@@H]1O [[125I]-AB-MECA, [^125I]-4-aminobenzyl-5′-N-methylcarboxamidoadenosine]
